Data as given in patent US20230183317A1, “METHODS OF DETECTING AND TREATING LUNG DAMAGE IN RESPIRATORY-RELATED VIRAL INFECTIONS” (The Regents of the University of California, priority 2020, published 2023).

Sequences of proteins named here, by UniProt entry; tags and fusion partners are left off. Residues count along the entry.
UniProt P06756, 891-1048 partner limits assumed: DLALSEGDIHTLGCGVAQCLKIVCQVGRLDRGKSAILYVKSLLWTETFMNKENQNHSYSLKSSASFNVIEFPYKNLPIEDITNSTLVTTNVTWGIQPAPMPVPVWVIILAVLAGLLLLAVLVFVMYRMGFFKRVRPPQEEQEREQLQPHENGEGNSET
UniProt P06756, 31-889 limits assumed: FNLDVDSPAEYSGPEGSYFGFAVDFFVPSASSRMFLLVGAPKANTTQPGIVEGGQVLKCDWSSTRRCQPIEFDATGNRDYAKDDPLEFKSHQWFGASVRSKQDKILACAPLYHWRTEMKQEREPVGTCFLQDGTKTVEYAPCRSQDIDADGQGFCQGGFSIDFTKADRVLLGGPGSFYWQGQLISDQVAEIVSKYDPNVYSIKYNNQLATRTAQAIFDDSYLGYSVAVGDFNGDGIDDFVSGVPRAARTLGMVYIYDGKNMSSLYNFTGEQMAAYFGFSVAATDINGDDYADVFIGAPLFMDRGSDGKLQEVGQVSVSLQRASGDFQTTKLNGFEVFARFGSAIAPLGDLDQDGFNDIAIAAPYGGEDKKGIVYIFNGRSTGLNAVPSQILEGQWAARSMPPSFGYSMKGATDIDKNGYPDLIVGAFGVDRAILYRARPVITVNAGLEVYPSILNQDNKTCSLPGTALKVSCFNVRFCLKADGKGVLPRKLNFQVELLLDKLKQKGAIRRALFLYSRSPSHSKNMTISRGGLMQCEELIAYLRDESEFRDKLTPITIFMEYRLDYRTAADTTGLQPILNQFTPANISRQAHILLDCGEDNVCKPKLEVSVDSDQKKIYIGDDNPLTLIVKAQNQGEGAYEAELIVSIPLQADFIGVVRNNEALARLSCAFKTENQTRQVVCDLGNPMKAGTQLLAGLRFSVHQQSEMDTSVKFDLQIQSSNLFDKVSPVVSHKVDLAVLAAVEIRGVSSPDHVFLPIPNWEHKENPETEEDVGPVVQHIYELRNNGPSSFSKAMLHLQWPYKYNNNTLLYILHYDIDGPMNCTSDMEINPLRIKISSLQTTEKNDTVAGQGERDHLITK
UniProt P18564, 22-788: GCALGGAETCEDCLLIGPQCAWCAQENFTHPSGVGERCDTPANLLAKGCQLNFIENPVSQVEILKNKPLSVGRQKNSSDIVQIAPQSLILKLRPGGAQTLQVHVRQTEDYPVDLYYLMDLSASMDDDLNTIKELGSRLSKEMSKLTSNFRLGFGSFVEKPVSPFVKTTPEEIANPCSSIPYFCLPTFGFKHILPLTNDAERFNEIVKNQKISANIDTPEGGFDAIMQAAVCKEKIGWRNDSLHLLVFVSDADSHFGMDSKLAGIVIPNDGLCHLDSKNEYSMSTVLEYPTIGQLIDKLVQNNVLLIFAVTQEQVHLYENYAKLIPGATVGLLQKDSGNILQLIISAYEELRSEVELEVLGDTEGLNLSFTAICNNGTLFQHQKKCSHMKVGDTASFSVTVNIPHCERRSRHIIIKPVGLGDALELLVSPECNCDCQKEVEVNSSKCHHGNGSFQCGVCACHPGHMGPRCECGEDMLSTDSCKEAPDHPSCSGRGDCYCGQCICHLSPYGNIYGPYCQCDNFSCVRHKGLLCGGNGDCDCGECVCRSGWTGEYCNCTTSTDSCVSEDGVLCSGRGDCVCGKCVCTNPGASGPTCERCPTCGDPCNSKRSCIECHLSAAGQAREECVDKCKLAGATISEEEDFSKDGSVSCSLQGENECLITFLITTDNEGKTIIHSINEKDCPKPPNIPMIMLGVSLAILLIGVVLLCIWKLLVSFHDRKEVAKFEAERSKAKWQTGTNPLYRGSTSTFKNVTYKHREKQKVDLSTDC

Assays:
[1] = biological target: T1, integrin αvβ6 (Homo sapiens, UniProt P06756+P18564)
[2] = Vital signs before and after ^18F-αvβ6-BP injection; type: in vivo, human; details: Example 3 patient, 340 MBq i.v. bolus
Method: The patient was injected with ^18F-αvβ6-BP (340 MBq) as a rapid intravenous bolus. Prior to injection, blood samples were drawn. Immediately before and after the injection the patients vital signs (blood pressure, heart rate, pulse oximetry value and body temperature) were measured. The patient rested for 1 hour prior to the PET/CT scan. The PET scan was performed on a GE Discovery 690 PET/CT scanner at 2 minutes per bed position. A PET/CT acquisition of the thorax with arms up was performed with a typical low dose level CT scan (140 kV ‘smart mA’ [50-350 mA], noise index 20) of the thorax for attenuation correction. Immediately following, a second nonattenuation corrected PET scan was acquired from the skull vertex to the proximal thighs with arms up.

[3] = biological target: T1, integrin αvβ6; details: Example 3 patient
[4] = clinical; details: human, in vivo, total radioactivity
[5] = Radiation dosimetry of ^18F-αvβ6-BP (OLINDA/EXM); type: in vivo, human
Method: All participants were scanned at 30, 60, 120, and 180 minutes post ^18F-αvβ6-BP injection. Reconstruction of the images was performed using OSEM. PET/CT image review was performed in multiple formats including axial, sagittal, coronal, fused, unfused, corrected and uncorrected datasets on a GE Advantage Workstation version 4.5 (VolumeViewer 9.5) and GE AW Server 3.2 ext3 (VolumeViewer 14 ext4). Organ specific analysis was performed using Organ Level Internal Dose Assessment/EXponential Modeling (OLINDA/EXM) version 1.1 (Vanderbuilt University) with updated weighting factors from the International Commission on Radiation Protection (ICRP) 103 (2007). Individual regions within specific organ sites were taken using 8 cm^3 (2×2×2 cm) volumes and SUVmax was recorded at all four time points for the first 19 participants. […] Radioactivity was seen throughout the gastrointestinal tract with anterograde movement over time. The average SUV value for normal lung was 0.56, the range observed was 0.3-1.0 and no significant changes were noted between the imaging times points. […] The mean effective dose for ^18F-αvβ6-BP was 0.02 mSv/MBq.
This study uses a microdose study and the actual mass of drug injected based on the 10 mCi (±20%) (molar activity >1Ci/μmole) injection dose of ^18F-αvβ6-BP is less than 50 μgrams (below 100 μgrams). […]

Compound: CC(C)C[C@H](NC(=O)[C@H](CC(=O)O)NC(=O)CNC(=O)[C@H](CCCNC(=N)N)NC(=O)[C@H](CC(C)C)NC(=O)[C@H](CC(N)=O)NC(=O)[C@@H]1CCCN1C(=O)[C@@H](NC(=O)[C@H](C)NC(=O)[C@H](CC(N)=O)NC(=O)CCOCCOCCOCCOCCOCCOCCOCCOCCOCCOCCOCCOCCOCCOCCOCCOCCOCCOCCOCCOCCOCCOCCOCCOCCOCCOCCOCCOCCNC(=O)c1ccc(F)cc1)C(C)C)C(=O)N[C@@H](CCC(N)=O)C(=O)N[C@H](C(=O)N[C@@H](CC(C)C)C(=O)N[C@@H](C)C(=O)N[C@@H](CCC(N)=O)C(=O)N[C@@H](CCCNC(=N)N)C(=O)N[C@H](C(=O)N[C@@H](C)C(=O)N[C@@H](CCCNC(=N)N)C(=O)N[C@H](C(=O)NCCOCCOCCOCCOCCOCCOCCOCCOCCOCCOCCOCCOCCOCCOCCOCCOCCOCCOCCOCCOCCOCCOCCOCCOCCOCCOCCOCCOCCC(N)=O)[C@@H](C)O)C(C)C)C(C)C [^18F-αvβ6-BP, PEG28-[A20FMDV2(K16R)]-PEG28]
- background uptake in normal brain, lungs, liver and osseous skeleton ([1]; PET images, 26 subjects, words): low background uptake
- radioactivity in pituitary, lacrimal glands, salivary glands, thyroid, esophagus, stomach, small intestine, large intestine, kidneys, pancreas, bladder, uterus, prostate gland ([1]; PET, words): Detectable radioactivity
- uptake in the brain, lungs and liver ([1]; PET, words): Very low/trace uptake
- elimination of radioactivity ([1]; over time, via kidneys): continuous elimination via urine into the bladder
- vital signs during the study [2]: No changes in vital signs
- SUVmax in regions of normal lung parenchyma ([3]; 1 h after 340 MBq i.v.): 0.8-1.0
- uptake in normal lung parenchyma ([3]; words): Minimal uptake
- SUV ([4]; SUV range observed for normal lung): 0.3 SUV
- SUV ([4]; average SUV value for normal lung, SUVmax in 8 cm^3 volumes, 30, 60, 120, 180 min post injection, first 19 participants): 0.56 SUV
- SUV ([4]; lung carcinoma SUV range, abnormalities noted in the lung): 6 SUV
- SUV ([4]; lung metastasis SUV range, abnormalities noted in the lung): 2.5 SUV
- SUV ([4]; suspect fibrosis SUV range, abnormalities noted in the lung): 2 SUV
- mean effective dose ([5]; OLINDA/EXM 1.1, ICRP 103 weighting factors): 0.02 mSv/MBq
- effective dose ([5]; maximum injected dose 10 mCi/370 MBq): 7.41 mSv
